The values below are quoted from earlier work in article PMC8307404, “Crystal Structure-Guided Design of Bisubstrate Inhibitors and Photoluminescent Probes for Protein Kinases of the PIM Family” (Molecules, 2021).

In this data set the target is PIM-1. The conditions noted are these: read-out: KD (PIM-1); cited from earlier work.

As a reminder, the Kd is the concentration at which binding is half-saturated. In the case of ARKRRRHPSGPPTA [Pimtide], the Kd was 58 nM.
